Our source for the IC50 values is US20240109853A1 (Shanghai Yao Yuan Biotechnology Co., Ltd., priority 2020, published 2024).

Chains of the proteins cited; added tags and fusions are not shown.
UniProt Q96QP1, whole entry V1092A: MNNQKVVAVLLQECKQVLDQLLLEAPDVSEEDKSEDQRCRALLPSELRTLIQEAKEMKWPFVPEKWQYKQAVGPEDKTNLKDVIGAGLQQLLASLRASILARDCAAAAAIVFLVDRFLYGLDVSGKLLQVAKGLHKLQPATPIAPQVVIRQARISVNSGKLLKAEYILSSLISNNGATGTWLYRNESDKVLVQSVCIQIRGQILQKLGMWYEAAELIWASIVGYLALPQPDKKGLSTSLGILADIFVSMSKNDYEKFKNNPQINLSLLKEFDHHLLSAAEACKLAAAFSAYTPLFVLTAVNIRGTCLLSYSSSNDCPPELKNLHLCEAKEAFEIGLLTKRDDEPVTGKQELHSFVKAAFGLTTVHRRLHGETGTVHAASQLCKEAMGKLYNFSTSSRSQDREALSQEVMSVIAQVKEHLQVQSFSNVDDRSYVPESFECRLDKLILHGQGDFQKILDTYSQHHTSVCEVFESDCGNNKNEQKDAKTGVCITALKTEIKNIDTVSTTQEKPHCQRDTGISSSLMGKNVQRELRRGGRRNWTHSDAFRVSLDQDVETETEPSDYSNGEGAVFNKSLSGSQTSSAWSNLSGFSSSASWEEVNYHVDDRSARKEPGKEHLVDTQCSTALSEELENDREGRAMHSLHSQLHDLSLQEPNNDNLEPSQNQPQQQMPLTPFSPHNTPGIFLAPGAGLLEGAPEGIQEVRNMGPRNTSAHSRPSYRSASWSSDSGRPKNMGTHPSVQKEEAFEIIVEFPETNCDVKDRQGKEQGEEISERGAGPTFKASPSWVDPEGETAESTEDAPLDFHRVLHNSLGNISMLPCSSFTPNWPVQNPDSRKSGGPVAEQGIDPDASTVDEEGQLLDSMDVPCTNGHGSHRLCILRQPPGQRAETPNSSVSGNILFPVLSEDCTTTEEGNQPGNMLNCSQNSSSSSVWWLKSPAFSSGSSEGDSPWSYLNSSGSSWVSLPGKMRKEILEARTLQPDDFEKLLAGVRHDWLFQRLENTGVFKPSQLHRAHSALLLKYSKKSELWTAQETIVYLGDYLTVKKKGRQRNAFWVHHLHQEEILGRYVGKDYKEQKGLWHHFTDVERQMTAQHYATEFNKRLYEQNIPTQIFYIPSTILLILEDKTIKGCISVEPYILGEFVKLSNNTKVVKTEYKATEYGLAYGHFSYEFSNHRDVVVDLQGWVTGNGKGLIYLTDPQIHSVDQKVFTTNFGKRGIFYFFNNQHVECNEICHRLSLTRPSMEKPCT

Broadly, the IC50 is the midpoint of a concentration-inhibition curve. A high value points to lower potency.

The target of one test is ALPK1 (Homo sapiens (Human), UniProt Q96QP1). As to the kind of experiment: ALPK1 in vitro kinase assay (HTRF of TIFA phosphorylation). The format is biochemical. The source says:
In embodiments, a compound of Formula I, or a subembodiment described herein, is an inhibitor of ALPK1 as measured, for example, in an in vitro kinase assay, or an assay designed to measure the activation of downstream targets of ALPK1 pathway activation, for example NFkB transcriptional activation and the secretion of proinflammatory cytokines and chemokines, such as IL-8, which is also referred to as CXCL-8. In general, the computer program XL fit was used for data analysis, including non-linear regression analysis. The half maximal inhibitory concentration (IC50) was used as the measure of a compound's effectiveness in the assays. IC50 values were determined using the following logistic equation Y=min+(max−min)/(1+(X/IC50^−hillslpoe), where Y is the value at the compound concentration, X. The concentration response curve fitting was conducted using GraphPad Prism version 6.00 software.
ALPK1 kinase activity was measured in an in vitro assay using ADP-Heptose as the ALPK1 ligand and activator of its kinase activity and TIFA protein as the ALPK1 phosphorylation substrate. Since phosphorylated TIFA proteins oligomerize, Homogeneous Time-Resolved Fluorescence (HTRF) was used to measure protein:protein interaction between HA-tagged TIFA proteins as an indicator of TIFA phosphorylation.
In brief, dose-response studies were performed with HEK293 cells cultured in Dulbecco's Modified Eagle Medium (DMEM) supplemented 10% fetal bovine serum (FBS, Hyclone™) containing antibiotics (pen/strep, G418) in 384-well assay plates. Each well contained 0.1 mg TIFA, ALPK1 (2 nM final concentration in reaction mixture) and kinase buffer (100 mM of HEPES pH 7.4, 4 mM DTT, 40 mM MgCl2, 20 mM of β-Glycerol phosphate disodium salt, 0.4 mM of Na3VO4, 0.16 mg/mL). Titrations of the test compounds were prepared in dimethylsulphoxide (DMSO). The reaction was initiated by addition of ATP and ADP-Heptose.
For HTRF, samples were incubated with a Tb cryptate-labeled anti-HA antibody for capturing HA-tagged proteins according to the manufacturer's instructions (PerkinElmer™, CisBio™) and the fluorescence signal was quantified (Tecan Infinite F NANO+). HTRF signals were calculated as the HTRF ratio (ratio of fluorescence measured at 665 nm and 620 nm)×104 (thereby using the signal at 620 nm as an internal standard).
IC50 values were determined using 3- or 4-parameter logistic equation using GraphPad Prism version 6.00. The reference compound, A027, was used as a positive control for each plate.
(TR-FRET usually uses a lanthanide donor and a delayed reading to cut background.)

The target in a further test is hALPK1-V1092A (Homo sapiens (Human), UniProt Q96QP1, V1092A). The test can be described thus: cell-based.
[1] abbreviates: ALPK1 2 nM, TIFA substrate, ADP-Heptose activator, HTRF readout.

SMILES strings stand for the structures. Where two headings read alike, the source gives them in different places.

Compound `C#CC(C)(c1ccc(Br)cc1)c1csc(NC(C)=O)n1` (stereo not shown) [Example D009, N-(4-(2-(4-bromophenyl)but-3-yn-2-yl)thiazol-2-yl)acetamide] had a concentration for half-maximal inhibition (IC50) against ALPK1 (setting [1]) of 16 nM. At ALPK1 (setting [1]), `C#C[C@](C)(c1ccc(Br)cc1)c1csc(NC(C)=O)n1` [Example D010, (R)-N-(4-(2-(4-bromophenyl)but-3-yn-2-yl)thiazol-2-yl)acetamide] yielded an IC50 of 102 nM. This IC50 lies about 6.4-fold higher than the previous one. For `C#C[C@@](C)(c1ccc(Br)cc1)c1csc(NC(C)=O)n1` [Example D011, (S)-N-(4-(2-(4-bromophenyl)but-3-yn-2-yl)thiazol-2-yl)acetamide], at ALPK1 (setting [1]), the IC50 is 14 nM. Compound `C#C[C@](C)(c1ccc(Cl)cc1)c1csc(NC(=O)N2CCc3cc(N4CCNCC4)ccc3C2)n1` (stereo in doubt) [Example A280, N-(4-(2-(4-chlorophenyl)but-3-yn-2-yl)thiazol-2-yl)-6-(piperazin-1-yl)-3,4-dihydroisoquinoline-2(1H)-carboxamide] had a half-inhibitory concentration (IC50) against ALPK1 of 21 nM. On to `C#C[C@@](C)(c1ccc(Cl)cc1)c1csc(NC(=O)N2CCc3cc(N4CCNCC4)ccc3C2)n1` [Example A281, N-(4-(2-(4-chlorophenyl)but-3-yn-2-yl)thiazol-2-yl)-6-(piperazin-1-l)-3,4-dihydroisoquinoline-2(1H)-carboxamide], for which the IC50 at hALPK1-V1092A amounted to 486 nM; on ALPK1 it was 38 nM. For `C#C[C@@](C)(c1ccc(Cl)cc1)c1csc(NC(=O)N2CCc3cc(N4CCNCC4)ccc3C2)n1` [Example A260, (S)-N-(4-(2-(4-chlorophenyl)but-3-yn-2-yl)thiazol-2-yl)-6-(piperazin-1-yl)-3,4-dihydroisoquinoline-2(1H)-carboxamide], on ALPK1, it took 74 nM to reach half-maximal inhibition (IC50).
